Values quoted from earlier work as cited in patent publication US20090062309A1, “Therapeutic compositions for the treatment of cardiovascular diseases and methods for use therefor” (priority 2007, published 2009).

Details: upon ingestion, humans; cited from earlier work

Cl.NC(N)=NC(=O)c1nc(Cl)c(N)nc1N.O.O [Amiloride, 3,5-diamino-6-chloro-N-(diaminomethylene) pyrazinecarboxamide monohydrochloride, dihydrate]
metabolism: not metabolized by the liver
